Drawing on patent publication US8410112B2, “Compounds useful as inhibitors of ATR kinase” (Vertex Pharmaceuticals Incorporated, priority 2008, dated 2013), this text covers Ki for 2 compounds.

Protein sequences, listed by entry. Tags and fused reporters are not part of them.
UniProt Q13535, whole entry: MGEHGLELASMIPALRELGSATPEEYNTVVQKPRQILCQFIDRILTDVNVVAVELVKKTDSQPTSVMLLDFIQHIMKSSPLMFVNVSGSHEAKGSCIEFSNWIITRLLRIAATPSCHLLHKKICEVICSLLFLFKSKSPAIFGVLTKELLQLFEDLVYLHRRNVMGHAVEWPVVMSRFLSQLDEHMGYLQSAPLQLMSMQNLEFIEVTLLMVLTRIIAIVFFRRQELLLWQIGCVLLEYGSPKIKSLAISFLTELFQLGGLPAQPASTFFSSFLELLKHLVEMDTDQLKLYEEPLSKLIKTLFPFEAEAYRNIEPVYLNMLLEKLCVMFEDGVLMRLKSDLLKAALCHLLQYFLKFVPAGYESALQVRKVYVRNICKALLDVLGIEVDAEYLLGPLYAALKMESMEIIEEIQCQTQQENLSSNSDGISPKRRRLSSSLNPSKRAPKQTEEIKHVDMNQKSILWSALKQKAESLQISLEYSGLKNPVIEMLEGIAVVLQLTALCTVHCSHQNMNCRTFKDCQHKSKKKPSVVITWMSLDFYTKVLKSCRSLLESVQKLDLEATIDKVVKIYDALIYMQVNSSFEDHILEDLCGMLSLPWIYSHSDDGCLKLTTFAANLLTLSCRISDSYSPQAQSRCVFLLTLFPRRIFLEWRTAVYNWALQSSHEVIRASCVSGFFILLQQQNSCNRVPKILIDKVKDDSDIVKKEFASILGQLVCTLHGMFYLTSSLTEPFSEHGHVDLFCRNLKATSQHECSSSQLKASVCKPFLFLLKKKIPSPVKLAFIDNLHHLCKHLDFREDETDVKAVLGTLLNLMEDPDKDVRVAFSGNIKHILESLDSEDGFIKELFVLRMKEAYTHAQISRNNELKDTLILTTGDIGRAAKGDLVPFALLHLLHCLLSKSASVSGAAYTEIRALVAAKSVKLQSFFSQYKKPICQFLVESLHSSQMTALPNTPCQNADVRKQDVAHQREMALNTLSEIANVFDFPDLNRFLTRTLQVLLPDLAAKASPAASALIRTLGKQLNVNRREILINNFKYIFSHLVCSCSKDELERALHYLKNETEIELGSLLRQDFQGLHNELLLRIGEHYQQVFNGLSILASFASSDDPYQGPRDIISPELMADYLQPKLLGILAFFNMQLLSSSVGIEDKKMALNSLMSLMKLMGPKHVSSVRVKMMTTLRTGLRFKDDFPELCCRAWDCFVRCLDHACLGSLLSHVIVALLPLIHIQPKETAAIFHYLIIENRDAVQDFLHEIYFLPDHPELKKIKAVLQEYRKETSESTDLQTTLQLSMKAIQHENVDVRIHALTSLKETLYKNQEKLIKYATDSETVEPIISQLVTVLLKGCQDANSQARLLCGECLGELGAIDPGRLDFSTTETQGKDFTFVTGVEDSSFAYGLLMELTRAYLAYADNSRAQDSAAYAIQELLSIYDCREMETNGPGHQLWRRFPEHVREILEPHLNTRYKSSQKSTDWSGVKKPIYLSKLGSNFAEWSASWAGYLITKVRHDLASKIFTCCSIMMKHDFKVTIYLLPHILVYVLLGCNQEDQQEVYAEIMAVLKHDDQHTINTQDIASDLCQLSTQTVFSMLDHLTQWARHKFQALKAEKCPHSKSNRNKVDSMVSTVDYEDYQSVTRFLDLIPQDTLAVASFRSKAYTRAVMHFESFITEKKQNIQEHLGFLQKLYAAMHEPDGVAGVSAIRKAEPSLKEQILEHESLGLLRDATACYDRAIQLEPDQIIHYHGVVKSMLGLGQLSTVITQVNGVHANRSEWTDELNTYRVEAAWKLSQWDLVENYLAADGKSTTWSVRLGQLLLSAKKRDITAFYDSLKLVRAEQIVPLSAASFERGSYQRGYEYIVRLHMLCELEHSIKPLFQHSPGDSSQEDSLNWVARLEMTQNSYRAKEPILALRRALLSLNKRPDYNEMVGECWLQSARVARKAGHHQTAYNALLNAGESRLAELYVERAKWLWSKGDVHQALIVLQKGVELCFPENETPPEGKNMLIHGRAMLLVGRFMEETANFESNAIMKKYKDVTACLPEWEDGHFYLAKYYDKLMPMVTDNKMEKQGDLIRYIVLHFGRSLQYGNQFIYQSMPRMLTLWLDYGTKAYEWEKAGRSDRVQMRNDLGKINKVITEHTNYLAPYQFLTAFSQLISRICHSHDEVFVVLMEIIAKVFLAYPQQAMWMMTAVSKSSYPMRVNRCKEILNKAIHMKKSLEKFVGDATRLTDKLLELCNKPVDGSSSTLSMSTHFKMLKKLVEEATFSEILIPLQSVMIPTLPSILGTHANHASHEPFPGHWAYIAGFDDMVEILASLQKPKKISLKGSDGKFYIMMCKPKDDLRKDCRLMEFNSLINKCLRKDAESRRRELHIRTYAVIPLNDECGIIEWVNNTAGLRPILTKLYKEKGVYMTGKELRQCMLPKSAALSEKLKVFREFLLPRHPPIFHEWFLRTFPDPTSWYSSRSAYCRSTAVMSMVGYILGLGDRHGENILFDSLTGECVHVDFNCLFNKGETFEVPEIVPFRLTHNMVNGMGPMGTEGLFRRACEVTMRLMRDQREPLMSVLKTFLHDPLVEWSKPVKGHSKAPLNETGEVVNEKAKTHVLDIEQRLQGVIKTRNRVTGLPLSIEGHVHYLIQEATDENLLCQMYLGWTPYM

This test has as its target full-length ATR (Homo sapiens, UniProt Q13535). Briefly: ATR Inhibition Assay (radioactive-phosphate incorporation). As to conditions: read-out: ATR Ki; Ki(app); 5 nM full-length ATR, 10 μM ATP, 800 μM target peptide, 25° C.

`Nc1ncc(N2CCN(C(=O)OCc3ccccc3)CC2)nc1-c1nc2ccccc2[nH]1`: the Ki is 1 to 10 µM. In the case of `Nc1ncc(N2CCN(C(=O)c3ccccc3)CC2)nc1-c1nnc(-c2ccccc2)o1`, the Ki lay within 0.1 to 1 µM.
